Reference: ChEMBL document CHEMBL6071202, “Design, Synthesis, and Biological Evaluation of 3-Amino-pyrazine-2-carboxamide Derivatives as Novel FGFR Inhibitors” (ACS Med Chem Lett, 2024)

Sequences of proteins named here, by UniProt entry; tags and fusion partners are left off.
UniProt P25101, whole entry: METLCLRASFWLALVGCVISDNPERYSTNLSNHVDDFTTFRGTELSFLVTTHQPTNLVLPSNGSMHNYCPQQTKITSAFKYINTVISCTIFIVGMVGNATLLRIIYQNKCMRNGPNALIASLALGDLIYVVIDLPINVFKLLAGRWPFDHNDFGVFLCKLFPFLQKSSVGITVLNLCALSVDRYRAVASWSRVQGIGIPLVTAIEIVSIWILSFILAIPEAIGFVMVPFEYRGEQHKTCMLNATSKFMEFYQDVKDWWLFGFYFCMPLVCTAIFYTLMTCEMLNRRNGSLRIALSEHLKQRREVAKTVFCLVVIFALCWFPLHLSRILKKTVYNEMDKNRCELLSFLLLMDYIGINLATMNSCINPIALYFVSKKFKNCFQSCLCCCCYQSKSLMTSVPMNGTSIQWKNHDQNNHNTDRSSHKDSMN

Target: Endothelin-1 receptor (Homo sapiens, UniProt P25101)
Test: Displacement of 125[I]-ET-1 from human ETA

SMILES: COc1nc(C)cnc1NS(=O)(=O)c1cccnc1-c1ccc(-c2nnco2)cc1 [ZIBOTENTAN]
- Ki: 13 nM
